## Antibody variant affinities, Ab-14 heavy chain, assay B

Values reported by Li et al. 2023, doi:10.1038/s41467-023-39022-2 (FLAb copy).

All variants were tested on one target, the spike HR2 peptide PDVDLGDISGINAS (SARS-CoV-2).

Ab-14 is the parent antibody, in scFv form: VH, then a (GGGGS)3 linker, then VL. The light chain is unchanged in all variants.
VH: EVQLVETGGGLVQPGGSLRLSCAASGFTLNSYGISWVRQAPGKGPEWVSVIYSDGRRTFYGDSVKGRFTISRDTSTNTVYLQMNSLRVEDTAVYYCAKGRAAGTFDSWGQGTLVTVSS
VL: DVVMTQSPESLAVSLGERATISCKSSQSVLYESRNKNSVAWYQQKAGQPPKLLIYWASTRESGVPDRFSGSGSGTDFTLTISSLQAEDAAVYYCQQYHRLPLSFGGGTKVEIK

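Phage display of a naive human antibody library on the peptide gave the parent. These sequences belong to a second round, designed from the earlier measurements on random variants of the parent. Several design methods are mixed in this list. AlphaSeq pools MATa yeast showing the antibodies with MATalpha yeast showing the peptide. After mating in shaken culture at 30 °C for 16 h, diploids were selected and their barcode pairs sequenced. Read counts were normalised to the haploid input and turned into Kd by a linear fit to BCL2-family pairs of known affinity, for each replicate. Mating was done six times.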

Variants are written as CDR1, CDR2 and CDR3 of the heavy chain (limits as in the source). Parent: GFTLNSYGIS, VIYSDGRRTFYGDSVK, GRAAGTFDS.
This list holds designs with at most six substitutions.
The Kd shown is the geometric mean over detected replicates; a lower Kd is a better binder.
Where no diploid with the target was found in any replicate, the entry reads "nd": below detection, most likely a poor binder, though not proof of it.

For GFELNEYGIS / VIYADGRRTFYGDSVK / GGAAGTFDS, the assay gave 580 pM (5 of 6 replicates; controls 0 of 18). The variant GFELNSYGIS / VIYADGRRTFYGDSVK / GRTAGTFDA showed 1.4 nM (6 of 6 replicates; controls 0 of 18). With GFTLNSYGIS / VIYADGRRTFYGDSVK / GRDAGKFDS the result was nd (0 of 6 replicates; controls 0 of 18). The variant GFTLDSYGIS / VIYSDGRRTFYGDWVK / GRAAGTALS showed nd (0 of 6 replicates; controls 0 of 18). The variant GFGLNDYGIS / VIYSDGRRTFYGDSVK / GTAAGTFDS gave 27 nM (6 of 6 replicates; controls 0 of 18). With GFTLVSYGIS / VIYSDGRRVFYGDSVK / GRAAGTFDS the result was nd (0 of 6 replicates; controls 0 of 18). The variant GFTLDSVGVS / VIYSDGIRTFYGDSVK / GRAAGTALS gave 100 nM (2 of 6 replicates; controls 0 of 18). The variant GFTLNSYGIS / VIYSDGRRTFYQDSVK / GEAAGTFDS gave 48 nM (5 of 6 replicates; controls 0 of 18). With GFTLNSYGIS / VIYSDGRRTFYSDSVK / GRAAYTFDS the result was 7.7 nM (1 of 6 replicates; controls 0 of 18).

The variant RFTLNSYGIS / VIYSDGGRTAYGDSVK / GRAAGTFDS gave 77 nM (1 of 6 replicates; controls 0 of 18). With GFELNSYGIS / VIYSDGRRTFYIDSVK / GKAAGTFDA the result was 11 nM (6 of 6 replicates; controls 0 of 18). For GFELNDYGIS / VIYSDGRRTFYIDSVK / GNAAGTFDS, the assay gave 1.9 nM (6 of 6 replicates; controls 1 of 18). With GFWLNEYGIS / VIYSDGRRTFYGDSVK / GQAAGTFDT the result was nd (0 of 6 replicates; controls 0 of 18). The variant GFNLNSYGIS / VIYSDGRRTFYGDSVK / GRTAGTFDT showed 2.0 nM (6 of 6 replicates; controls 1 of 18). For GFSLNEYGIS / VIYSDGRRTFYGDSVK / GRAAVTFDD, the assay gave nd (0 of 6 replicates; controls 0 of 18). For GTTLNSHGIS / VIYSDGRREFYGDSVK / GRKATYFDS, the assay gave nd (0 of 6 replicates; controls 0 of 18). The variant GFVLNSYGIS / VIYSDGRRTFYADSVK / GRMAGTFDS gave 1.0 nM (1 of 6 replicates; controls 0 of 18). For GFTLNSYGIS / VIYSDGRRTFYSDSVK / GWAAGTFDS, the assay gave 32 nM (6 of 12 replicates; controls 0 of 36).

The variant GFTLNEYGIS / VIYSDGTRTFYSDSVK / GRTAGTFDS gave 890 pM (6 of 6 replicates; controls 0 of 18). The variant GFGLNEYGIS / VIYSDGRRTFYGDSVK / GKQAGTFDS gave 650 pM (6 of 6 replicates; controls 0 of 18). With GFTLESYGIS / VIYADGRRTFYGDSVK / GTAAGTFDS the result was 5.0 nM (6 of 6 replicates; controls 0 of 18). For GFTLNSYGIS / VIYSDGRRTFYSDSVK / GQSAGTFDS, the assay gave 46 nM (6 of 6 replicates; controls 0 of 18). With GFTLNSYGIS / VIYSDGERTFYVDSVK / GRAAGTFDS the result was 69 nM (3 of 6 replicates; controls 0 of 18). The variant GFTLNEYGIS / VIYSDGRRTFYADSVK / GRAAVTFDS showed nd (0 of 6 replicates; controls 1 of 18). The variant GFDLNEYGIS / VIYADGRRTFYIDSVK / GEAAGTFDI showed 530 pM (6 of 6 replicates; controls 0 of 18). The variant GFTLNSYGIS / VIYSDGRRTSYEDSVK / GRAAGTFDD showed 50 nM (6 of 6 replicates; controls 1 of 18). For GFSLNSYGIS / VIYSDGRRTFYGDSVK / GRSAGTFDQ, the assay gave 640 nM (2 of 6 replicates; controls 1 of 18).

With GFTLNSYGIS / VIYSDGKRTFYGDSVK / GKVAGTFDS the result was 8.9 nM (6 of 6 replicates; controls 0 of 18). The variant GFTLNSYGIS / VIYSDGRRTFYGDSVK / ARAAGTFDW showed nd (0 of 6 replicates; controls 0 of 18). For GFQLNSYGIS / VIYSDGRRTFYADSVK / GRVAGTFDQ, the assay gave 3.8 nM (6 of 6 replicates; controls 0 of 18). For GFTLNEYGIS / VIYSDGRRTMYSDSVK / GRAGGTFDS, the assay gave nd (0 of 6 replicates; controls 0 of 18). The variant GFQLNSYGIS / VIYSDGRRTFYGDSVK / GRNAGTFDT gave 5.8 nM (6 of 6 replicates; controls 0 of 18).

Extract of 2 entries:

CDR-H1,CDR-H2,CDR-H3,apparent Kd,replicates with signal,signal with controls
GFTLESYGIS,VIYADGRRTFYGDSVK,GTAAGTFDS,5.0 nM,6 of 6,0 of 18
GFELNSYGIS,VIYSDGRRTFYIDSVK,GKAAGTFDA,11 nM,6 of 6,0 of 18

The parent sequence was in this pool as ten entries: three were never detected, three once, and four in most replicates, with averages from 2.2 nM to 240 nM.
The authors' rule: three or more of the six replicates give a measured affinity, fewer mean a poor binder.
Values of this round are not directly comparable with the first-round values of the same sequences.
Where one sequence has several entries in the source, the replicates are pooled.
Nonspecific signal, from three strains lacking the peptide, appeared in 1% of pairings of all heavy chain designs, centred on 120 nM (5% of these signals below 7.0 nM); values are not corrected for it. Also given: how often the same scFv was detected with the empty control strains.